Yeast mating assay 2: variants of the scFv Ab-95

Antigen: PDVDLGDISGINAS, a 14-residue peptide of the SARS-CoV-2 spike HR2 region.

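The library (AAYL52) carries one to three amino acid substitutions per variant, with no insertions or deletions. The assay is AlphaSeq: two haploid yeast populations carry antibody and antigen on their surface. Pairs that bind mate more often; barcode pairs of the diploids are counted by sequencing. Each replicate has its own calibration line, from reference interactions of the BCL2 family. Each pool was mated in three replicate cultures.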

Parent scFv Ab-95: VH joined to VL by the linker GGGGSGGGGSGGGGS. Changes lie in the light chain CDRs alone.
VH: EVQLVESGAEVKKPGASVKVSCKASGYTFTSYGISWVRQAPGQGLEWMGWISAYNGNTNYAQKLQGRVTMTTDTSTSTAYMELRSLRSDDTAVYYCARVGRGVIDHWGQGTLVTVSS
VL: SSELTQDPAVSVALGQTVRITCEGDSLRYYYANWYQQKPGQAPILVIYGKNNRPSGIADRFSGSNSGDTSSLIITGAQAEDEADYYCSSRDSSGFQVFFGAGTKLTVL

Variants are written as CDR1, CDR2 and CDR3 of the light chain (limits as in the source). Parent: EGDSLRYYYAN, GKNNRPS, SSRDSSGFQVF.
This list gathers variants with a substitution at R90 (VL, numbered from residue 1).
Values are log10 of the apparent Kd in nM; lower means stronger binding.
Replicates are averaged; those with no signal do not enter the mean.
An entry "nd" has no value in the source: the pair was not observed among the diploids in any replicate. This suggests poor binding but is not conclusive.
Order: sorted from the lowest average up, undetected variants last.
Parent in this assay: reference entry 2.31, copy in this library 2.25.
Nonspecific signal, from three strains lacking the peptide, appeared in 28% of pairings of library AAYL52, centred on 3.91 (5% of these signals below 2.90); values are not corrected for it. For each scFv, signals with the empty controls are counted beside the result.

* EGDSLRNYYAN, GKNNRPS, SSVDSSGFQVF -> 1.44 (3 of 3 replicates; controls 4 of 9)
* EGDSLRYYYAN, GKNNRPS, SSVDSSHFAVF -> 2.46 (3 of 3 replicates; controls 1 of 9)
* GGDSLRYYYAN, GKNNAPS, SSHDSSGFQVF -> 2.62 (3 of 3 replicates; controls 1 of 9)
* EGDSLRYYCAN, GKNNRPS, SSLDSSGFQVM -> 2.64 (3 of 3 replicates; controls 2 of 9)
* EGDSLRYYAAN, GKNNRPS, WSKDSSGFQVF -> 2.69 (3 of 3 replicates; controls 4 of 9)
* EGDSLHYYYAN, GKNNRPS, SSGDSSGFQVS -> 2.85 (3 of 3 replicates; controls 4 of 9)
* EGDSLRYYYAN, GKNNRPS, SEQDSSGFQVF -> 2.90 (3 of 3 replicates; controls 2 of 9)
* EGDSLRYYYAN, GKNNRPS, SSEDSSGFLVF -> 2.95 (3 of 3 replicates; controls 6 of 9)
* EGDSLRTCYAN, GKNNRPS, SSLDSSGFQVF -> 3.05 (2 of 3 replicates; controls 2 of 9)
* EGDSLRYYYAN, GKNNRPS, SSYDSSGFQVF -> 3.09 (3 of 3 replicates; controls 4 of 9)
* EGDSLRYYYAN, GKNNRPS, SSVDSSGFQVF -> 3.13 (3 of 3 replicates; controls 4 of 9)
* EADSLRYYYAN, GKNNRPS, SSADSCGFQVF -> 3.19 (3 of 3 replicates; controls 2 of 9)
* EGDSLRYYYAN, KKNNRPS, SSEDSSGFQVW -> 3.22 (2 of 3 replicates; controls 1 of 9)
* EGDSLRYYYGN, GINNRPS, SSIDSSGFQVF -> 3.25 (2 of 3 replicates; controls 3 of 9)
* EGDSLRYYYAN, GKNNRPS, SSSDNSGFQVG -> 3.27 (3 of 3 replicates; controls 5 of 9)
* EGLSLRYYYAN, GKNNRPS, SSSDSNGFQVF -> 3.28 (3 of 3 replicates; controls 1 of 9)
* VGQSLRYYYAN, GKNNRPS, SSIDSSGFQVF -> 3.38 (3 of 3 replicates; controls 1 of 9)
* EGDSLRYYYAA, GKNNRPS, SSVDSSGFQSF -> 3.42 (2 of 3 replicates; controls 2 of 9)
* EGDSGRYYYAN, GKNNRPS, SSCDSSGFSVF -> 3.49 (1 of 3 replicates; controls 1 of 9)
* EGDSLVYYYAN, GKNNRPS, SDPDSSGFQVF -> 3.53 (1 of 3 replicates; controls 5 of 9)
* EGDSLRFYYAN, GKNNRPS, SSQDSSGFHVF -> 3.58 (3 of 3 replicates; controls 2 of 9)
* EGDSLTYYYAN, GKNNRPS, SSTDSLGFQVF -> 3.65 (1 of 3 replicates; controls 1 of 9)
* EFDSLRYYYAN, GKNNRPS, SSVDSSGFQVF -> 3.71 (3 of 3 replicates; controls 5 of 9)
* EGDSLRYYYAN, CKNNRPS, SSVDSSGFTVF -> 3.74 (1 of 3 replicates; controls 1 of 9)
* EGDSYRYYYAN, GKNNRPS, SSMISSGFQVF -> 3.74 (2 of 3 replicates; controls 4 of 9)
* EGDSLRYYYAN, GKNNRPS, SSVDSKGFQLF -> 3.78 (2 of 3 replicates; controls 0 of 9)
* EGDSLRYYYGN, GKNNRPS, SSEDPSGFQVF -> 3.88 (2 of 3 replicates; controls 1 of 9)
* EGDSLRYYYAS, GKNNRPS, SSEDSYGFQVF -> 3.92 (3 of 3 replicates; controls 3 of 9)
* EGDSLRYQYAN, GKNNRPS, SWYDSSGFQVF -> 3.93 (1 of 3 replicates; controls 3 of 9)
* EGDSLRYYYAN, GKNNRPS, SSTDNSKFQVF -> 4.00 (1 of 3 replicates; controls 3 of 9)
* EGDSLVYYYAN, GKNNRGS, SSFDSSGFQVF -> 4.03 (3 of 3 replicates; controls 3 of 9)
* EGDSLRYYYAN, GKNNRPV, GSLDSSGFQVF -> 4.16 (1 of 3 replicates; controls 2 of 9)
* EGDILRYYYAN, GKNNRPS, SSWDSSGFQVF -> 4.16 (2 of 3 replicates; controls 3 of 9)
* EGDSLRYYYAH, GKNNRPS, SSYDSSGFQKF -> 4.47 (1 of 3 replicates; controls 1 of 9)
* EGDSLRYYYAN, GKNNRPS, SSSYSSGFQVF -> 4.50 (1 of 3 replicates; controls 0 of 9)
* EGDSLRYYYAG, GKNNRPS, SSSDCSGFQVF -> 5.10 (1 of 3 replicates; controls 2 of 9)
* EGHSLRYYYAN, GKNNRPS, SSKHSSGFQVF -> nd (0 of 3 replicates; controls 1 of 9)
* EKDSLRYYYAF, GKNNRPS, SSVDSSGFQVF -> nd (0 of 3 replicates; controls 1 of 9)
* EGDILRYYYAN, GKNNTPS, SSFDSSGFQVF -> nd (0 of 3 replicates; controls 0 of 9)
* EKDYLRYYYAN, GKNNRPS, SSYDSSGFQVF -> nd (0 of 3 replicates; controls 5 of 9)
* EGDSLRYYYAN, TKNNRRS, SSIDSSGFQVF -> nd (0 of 3 replicates; controls 2 of 9)
* YGDSLRFYYAN, GKNNRPS, SSVDSSGFQVF -> nd (0 of 3 replicates; controls 2 of 9)
* EGDSFRYYYAN, GKNNRYS, SSIDSSGFQVF -> nd (0 of 3 replicates; controls 2 of 9)
* EGDSLRYYYAN, GYNNRPS, SSGDSSCFQVF -> nd (0 of 3 replicates; controls 2 of 9)
* AGDSLRYYYAN, GKENRPS, SSYDSSGFQVF -> nd (0 of 3 replicates; controls 4 of 9)
* EGDMLRYYYAN, GKNNRPS, SSPDSSGFQFF -> nd (0 of 3 replicates; controls 0 of 9)
* EFDSLRYYYAC, GKNNRPS, SSCDSSGFQVF -> nd (0 of 3 replicates; controls 1 of 9)
* EGDSLRYYYAN, GKNNRPT, SSYDSSGFQQF -> nd (0 of 3 replicates; controls 0 of 9)

The opening 5 entries, copied out:

* EGDSLRNYYAN, GKNNRPS, SSVDSSGFQVF: 1.44 (3 of 3 replicates; controls 4 of 9)
* EGDSLRYYYAN, GKNNRPS, SSVDSSHFAVF: 2.46 (3 of 3 replicates; controls 1 of 9)
* GGDSLRYYYAN, GKNNAPS, SSHDSSGFQVF: 2.62 (3 of 3 replicates; controls 1 of 9)
* EGDSLRYYCAN, GKNNRPS, SSLDSSGFQVM: 2.64 (3 of 3 replicates; controls 2 of 9)
* EGDSLRYYAAN, GKNNRPS, WSKDSSGFQVF: 2.69 (3 of 3 replicates; controls 4 of 9)

Data: MIT Lincoln Laboratory AlphaSeq set, Engelhart et al. 2022, doi:10.1038/s41597-022-01779-4, as distributed in FLAb.